The experiment has as its target T1, PRAME (PRAME-004) peptide on HLA-A*02:01 (human).
T1 peptide: SLLQHLIGL
Briefly: cytokine release.

The source of these data is patent US20230192886A1 (published 2023).

B1: R17P1G3 (TCR, V domains shown)
Valpha: QKEVEQNSGPLSVPEGAIASLNCTYSDRGSQSFFWYRQYSGKSPELIMSIYSNGDKEDGRFTAQLNKASQYVSLLIRDSQPSDSATYLCAVGPSGTYKYIFGTGTRLKVLA
Vbeta: EAQVTQNPRYLITVTGKKLTVTCSQNMNHEYMSWYRQDPGLGLRQIYYSMNVEVTDKGDVPEGYKVSRKEKRNFPLILESPSPNQTSLYFCASSPGGSGNEQFFGPGTRLTVL
For B1, the binding result is “recognises”.
